The text below walks through data of US20260124309A1, “STAT6 DEGRADERS AND USES THEREOF” (Kymera Therapeutics, Inc., priority 2023, published 2026).

Amino acid sequences for entries named in this document (tags omitted). Residues count along the entry.
UniProt P42226, whole entry: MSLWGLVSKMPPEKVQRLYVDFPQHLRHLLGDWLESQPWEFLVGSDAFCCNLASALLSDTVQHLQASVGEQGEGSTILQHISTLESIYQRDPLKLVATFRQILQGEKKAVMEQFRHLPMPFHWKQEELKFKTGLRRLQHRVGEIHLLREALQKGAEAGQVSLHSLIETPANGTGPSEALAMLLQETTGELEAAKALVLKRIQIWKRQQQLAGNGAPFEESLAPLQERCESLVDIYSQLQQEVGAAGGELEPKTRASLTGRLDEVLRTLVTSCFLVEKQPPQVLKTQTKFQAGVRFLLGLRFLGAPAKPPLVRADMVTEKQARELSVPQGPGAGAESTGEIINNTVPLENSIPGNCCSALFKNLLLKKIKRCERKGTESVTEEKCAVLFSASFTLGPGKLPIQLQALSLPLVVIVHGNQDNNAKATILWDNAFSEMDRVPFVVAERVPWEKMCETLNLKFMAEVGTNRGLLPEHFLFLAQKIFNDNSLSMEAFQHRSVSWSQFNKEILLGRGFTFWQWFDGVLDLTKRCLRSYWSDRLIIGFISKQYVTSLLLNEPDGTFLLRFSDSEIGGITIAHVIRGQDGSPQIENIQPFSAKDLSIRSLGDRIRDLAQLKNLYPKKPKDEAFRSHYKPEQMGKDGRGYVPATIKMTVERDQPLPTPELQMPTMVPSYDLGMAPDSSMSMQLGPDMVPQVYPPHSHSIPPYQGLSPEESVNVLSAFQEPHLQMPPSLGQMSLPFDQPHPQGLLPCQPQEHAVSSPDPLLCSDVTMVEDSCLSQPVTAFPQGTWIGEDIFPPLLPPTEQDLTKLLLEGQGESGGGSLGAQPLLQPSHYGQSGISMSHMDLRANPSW
UniProt P42226, 123-632 limits assumed: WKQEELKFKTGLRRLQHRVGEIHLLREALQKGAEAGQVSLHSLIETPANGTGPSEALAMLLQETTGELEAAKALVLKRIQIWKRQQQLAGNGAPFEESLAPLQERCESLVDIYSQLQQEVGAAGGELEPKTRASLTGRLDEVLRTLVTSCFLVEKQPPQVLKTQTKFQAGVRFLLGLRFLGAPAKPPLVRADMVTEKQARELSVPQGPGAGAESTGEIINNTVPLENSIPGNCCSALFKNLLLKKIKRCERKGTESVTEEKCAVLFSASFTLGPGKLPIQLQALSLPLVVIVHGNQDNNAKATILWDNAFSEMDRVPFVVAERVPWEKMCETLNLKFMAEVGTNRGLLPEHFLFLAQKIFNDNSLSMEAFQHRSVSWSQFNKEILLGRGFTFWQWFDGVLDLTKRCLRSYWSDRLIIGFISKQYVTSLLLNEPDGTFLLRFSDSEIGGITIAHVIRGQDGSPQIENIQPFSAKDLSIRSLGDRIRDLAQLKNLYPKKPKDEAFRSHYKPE

Assay [1] addresses biotinylated truncated STAT6 (123-632)-avi (Homo sapiens, UniProt P42226). Put plainly: STAT6 HTRF binding assay. Particulars: read-out: STAT6 HTRF: Average IC50, 0.15 nM biotinylated truncated STAT6 (123-632)-avi, 20 nM fluorescein-labeled probe.
Another assay concerns the target STAT6 (Homo sapiens, UniProt P42226). Kind of assay: STAT6 MSD degradation in A549 cells. The settings on record: for DC50: read-out: STAT6 MSD degradation DC50 (nM) 24 h. A digest of the protocol: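 A549 cells treated with a 9-point 1:3 series (top up to 10 uM) for 4 to 24 hours at 37° C., then lysed in RIPA. STAT6 quantified by sandwich MSD electrochemiluminescence immunoassay. DC50 and Dmax from four-parameter nonlinear fit, reported as letter-code bins.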

The next assay concerns the target STAT6-HiBiT (Homo sapiens, UniProt P42226). Put plainly: STAT6 HiBiT degradation in A549 (STAT6-HiBiT) cells. Particulars: for DC50: read-out: STAT6 HiBiT degradation DC50 (nM) 24 h. (In general: HiBiT is a short tag that completes a luciferase, so light tracks the accessible tagged protein.)

Like-named read-outs stand apart in the source and are kept apart here.

With `CN(C)C(=O)c1cc2c(-c3ccc(N4CCN(CCCc5cccc6c5n(C)c(=O)n6C5CCC(=O)NC5=O)CC4)cc3)cc(C3=CCCN(C(=O)CCn4ccnn4)C3)cc2[nH]1` (centres unmarked), the IC50 in assay [1] (30 minutes at room temperature) is less than 100 nM. For the same molecule, on STAT6, the “STAT6 MSD degradation Dmax % 24 h” value is on record as “A (A (>90%))” and the DC50 is less than 1 nM. Besides, on STAT6-HiBiT, the “STAT6 HiBiT degradation Dmax % 24 h” value is given as “A (A (>90%))” and the DC50 is less than 1 nM.

Regarding `CN(C)C(=O)c1cc2c(-c3ccc(C4CCN(c5ccc(C6CCC(=O)NC6=O)c(F)c5)CC4)cc3)cc(C3=CCCN(C(=O)CCn4cccn4)C3)c(F)c2[nH]1` (centres unmarked), the IC50 in assay [1] (HTRF binding) was less than 100 nM. Also, at STAT6, the “STAT6 MSD degradation Dmax % 24 h” value is given as “A (A (>90%))” and the DC50 is less than 1 nM. Also, on STAT6-HiBiT, the “STAT6 HiBiT degradation Dmax % 24 h” value is “A (A (>90%))” and the DC50 was less than 1 nM.

As to `Cc1nn(C2CCC(=O)NC2=O)c2cccc(CCN3CC[C@H](c4cc(Cl)c(-c5cc(C6=CCCN(C(=O)CCn7cccn7)C6)c(F)c6[nH]c(C(=O)N(C)C)cc56)cc4F)C(F)(F)C3)c12` (some centres unmarked), in assay [1] (HTRF binding), the IC50 is less than 100 nM. On STAT6, the “STAT6 MSD degradation Dmax % 24 h” value is given as “A (A (>90%))” and the DC50 is less than 1 nM. Also, at STAT6-HiBiT, the “STAT6 HiBiT degradation Dmax % 24 h” value is on record as “A (A (>90%))” and the DC50 is less than 1 nM.

With `CN(C)C(=O)c1cc2c(-c3ccc(N4CCC5(CC4)CN(c4ccc(C(=O)NC6CCC(=O)NC6=O)c(F)c4)C5)cc3)cc(C3=CCCN(C(=O)CCn4cccn4)C3)c(F)c2[nH]1` (centres unmarked), in assay [1] (HTRF binding), the IC50 is less than 100 nM. For the same molecule, on STAT6, the “STAT6 MSD degradation Dmax % 24 h” value is on record as “B (B (>70-90%))” and the DC50 is less than 1 nM. Further, on STAT6-HiBiT, the “STAT6 HiBiT degradation Dmax % 24 h” value is “A (A (>90%))” and the DC50 is less than 1 nM.

As for `CN(C)C(=O)c1cc2c(-c3cc(F)c(N4CCN(CCc5cccc6c(C7CCC(=O)NC7=O)nn(C)c56)CC4)cc3Cl)cc(C3=CCCN(C(=O)CCn4cccn4)C3)c(F)c2[nH]1` (centres unmarked), in assay [1] (HTRF binding), the IC50 is less than 100 nM. Also, at STAT6, the “STAT6 MSD degradation Dmax % 24 h” value was “A (A (>90%))” and the DC50 was less than 1 nM. The “STAT6 HiBiT degradation Dmax % 24 h” value on STAT6-HiBiT is on record as “A (A (>90%))”.

On to `CN(C)C(=O)c1cc2c(-c3ccc(N4CCN(c5ccc(C6CCC(=O)NC6=O)cc5F)CC4)c(F)c3F)cc(C3=CCCN(C(=O)CCn4ccnn4)C3)c(F)c2[nH]1` (centres unmarked), for which the IC50 in assay [1] (HTRF binding) was less than 100 nM. Further, at STAT6, the “STAT6 MSD degradation Dmax % 24 h” value is recorded as “A (A (>90%))” and the DC50 is 1 to 10 nM. At STAT6-HiBiT, the “STAT6 HiBiT degradation Dmax % 24 h” value is reported as “A (A (>90%))” and the DC50 is less than 1 nM.

`CN(C)C(=O)c1cc2c(-c3cc(F)c(N4CCN(C5CCN(c6ccc(C7CCC(=O)NC7=O)cc6F)CC5)CC4)cc3F)cc(C3=CCCN(C(=O)CCn4cccn4)C3)c(F)c2[nH]1` (centres unmarked): in assay [1] (HTRF binding), the IC50 is less than 100 nM. At STAT6, the “STAT6 MSD degradation Dmax % 24 h” value was “A (A (>90%))” and the DC50 was less than 1 nM. Besides, on STAT6-HiBiT, the “STAT6 HiBiT degradation Dmax % 24 h” value is reported as “A (A (>90%))” and the DC50 is less than 1 nM.

Consider `CN(C)C(=O)c1cc2c(-c3ccc(N4CCN(c5ncc(C6CCC(=O)NC6=O)cc5F)CC4)c(F)c3F)cc(C3=CCCN(C(=O)CCn4cccn4)C3)c(F)c2[nH]1` (centres unmarked), for which, in assay [1] (HTRF binding), the concentration for half-maximal inhibition (IC50) was less than 100 nM. Moreover, on STAT6, the “STAT6 MSD degradation Dmax % 24 h” value is “A (A (>90%))” and the 50% degradation concentration (DC50) is less than 1 nM. On STAT6-HiBiT, the “STAT6 HiBiT degradation Dmax % 24 h” value is recorded as “B (B (>70-90%))” and the DC50 is less than 1 nM.

As for `CN(C)C(=O)c1cc2c(-c3ccc(N4CCN(C5CCN(c6ccc(C7CCC(=O)NC7=O)cc6F)CC5)CC4)c(F)c3F)cc(C3=CCCN(C(=O)CCn4cccn4)C3)c(F)c2[nH]1` (centres unmarked), the IC50 in assay [1] (HTRF binding) was less than 100 nM. For the same molecule, on STAT6, the “STAT6 MSD degradation Dmax % 24 h” value was “A (A (>90%))” and the 50% degradation concentration (DC50) is less than 1 nM. Further, the “STAT6 HiBiT degradation Dmax % 24 h” value on STAT6-HiBiT is reported as “A (A (>90%))”.

On to `COc1cc(N2CCN(CCc3ccc(C4CCC(=O)NC4=O)c(Cl)c3)CC2)ccc1-c1cc(C2=CCCN(C(C)=O)C2)c(F)c2[nH]c(C(=O)N(C)C)cc12` (centres unmarked), for which the IC50 in assay [1] (30 minutes at room temperature) was less than 100 nM. Besides, at STAT6, the “STAT6 MSD degradation Dmax % 24 h” value was “B (B (>70-90%))” and the DC50 lay in the range of 1 to 10 nM. Besides, at STAT6-HiBiT, the “STAT6 HiBiT degradation Dmax % 24 h” value is listed as “A (A (>90%))” and the half-maximal degradation concentration (DC50) lay in the range of 1 to 10 nM.

Consider `Cc1nn(C2CCC(=O)NC2=O)c2cccc(CCN3CCN(c4cc(F)c(-c5cc([C@H]6CCCN(C(=O)CCn7cccn7)C6)c(F)c6[nH]c(C(=O)N(C)C)cc56)cc4F)CC3)c12` (some centres unmarked), for which the IC50 in assay [1] (HTRF binding) is less than 100 nM. Further, on STAT6, the “STAT6 MSD degradation Dmax % 24 h” value is “A (A (>90%))” and the DC50 is less than 1 nM. On STAT6-HiBiT, the “STAT6 HiBiT degradation Dmax % 24 h” value is reported as “A (A (>90%))” and the DC50 is less than 1 nM.

What is called IC50 is the concentration at which inhibition is half-maximal. What is called DC50 is the concentration at which degradation of the target reaches its halfway point.
